This passage reports IC50 results from ChEMBL document CHEMBL1145841, “Design and synthesis of poly ADP-ribose polymerase-1 inhibitors. 2. Biological evaluation of aza-5[H]-phenanthridin-6-ones as potent, aqueous-soluble compounds for the treatment of ischemic injuries” (J Med Chem, 2003).

Sequences of proteins named here, by UniProt entry; tags and fusion partners are left off.
UniProt P09874, whole entry: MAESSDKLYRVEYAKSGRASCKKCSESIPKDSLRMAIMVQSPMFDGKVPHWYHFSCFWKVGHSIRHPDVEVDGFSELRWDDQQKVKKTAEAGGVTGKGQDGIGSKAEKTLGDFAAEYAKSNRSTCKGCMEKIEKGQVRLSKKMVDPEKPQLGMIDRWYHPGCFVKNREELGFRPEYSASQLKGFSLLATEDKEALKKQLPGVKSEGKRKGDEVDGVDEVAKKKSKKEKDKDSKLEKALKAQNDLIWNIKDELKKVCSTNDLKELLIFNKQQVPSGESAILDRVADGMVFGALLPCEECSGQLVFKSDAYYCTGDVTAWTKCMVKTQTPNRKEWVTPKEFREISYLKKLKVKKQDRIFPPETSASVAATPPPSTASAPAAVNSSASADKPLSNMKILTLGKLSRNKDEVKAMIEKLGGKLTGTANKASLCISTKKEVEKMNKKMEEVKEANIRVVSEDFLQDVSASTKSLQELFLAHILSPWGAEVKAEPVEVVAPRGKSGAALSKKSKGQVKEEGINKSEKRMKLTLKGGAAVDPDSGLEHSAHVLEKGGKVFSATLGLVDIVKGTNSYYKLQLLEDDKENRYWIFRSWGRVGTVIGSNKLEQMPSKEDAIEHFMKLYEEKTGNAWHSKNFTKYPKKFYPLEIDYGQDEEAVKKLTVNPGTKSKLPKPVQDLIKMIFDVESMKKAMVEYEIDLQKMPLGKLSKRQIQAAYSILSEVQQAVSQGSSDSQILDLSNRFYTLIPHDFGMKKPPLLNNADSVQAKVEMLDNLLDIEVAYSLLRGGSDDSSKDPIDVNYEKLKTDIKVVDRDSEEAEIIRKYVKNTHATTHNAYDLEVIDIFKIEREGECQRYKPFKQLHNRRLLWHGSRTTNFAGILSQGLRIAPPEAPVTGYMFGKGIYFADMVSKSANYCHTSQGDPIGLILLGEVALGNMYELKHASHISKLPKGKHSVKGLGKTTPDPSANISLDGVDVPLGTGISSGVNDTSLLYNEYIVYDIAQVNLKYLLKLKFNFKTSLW

Molecules are shown by their SMILES.

This experiment concerns the target Poly [ADP-ribose] polymerase 1 (Homo sapiens, UniProt P09874).
The IC50 is the concentration that inhibits the measured activity by half. Regarding `Oc1nc2ccccc2c2ccncc12`, the IC50 turned out to be 2600 nM.

`O=c1[nH]c2ncccc2c2ccccc12`: the IC50 was found to be 311 nM.

Compound `O=C(CN1CCCCC1)Nc1cnc2c(c1)nc(O)c1ccccc12` yielded an IC50 of 111 nM.
